GIV Gai3 FP = inhibitors of GIV peptide binding to Galpha-i3, primary screen, biochemical, fluorescence polarization, FITC-GIV GBA peptide, rat Galphai3 | 90 min; hits give low values; scaled: aluminum fluoride 0%, vehicle 100% | percent of control (FP), % (concentration not given with the values) | 210,000 compounds, 0.42% hits | AID 1224905, 2016;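 active = replicate mean at 85% of control or lower, very high polarization wells dropped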;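 also: wells of about 15 µL received 100 nL stock; the first replicate is given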
HCMV NEC inh = disrupts HCMV UL50-UL53 complex binding | HTRF UL50-UL53 interaction, normalized percent inhibition | inhibition, % (concentration not given with the values) | 0.15% of 190,000 active | AID 1918969; in the data active means inhibition above about 27%, passing the limit was not always enough
* marks the source's active call; other numbers are inactive results. A selection: hits, their analogues and other compounds. The true share with any hit is near 0.46%.

`CC(C)c1ccc(S(=O)(=O)Nc2cc(C(=O)O)cnc2N(C)C)cc1` gave GIV Gai3 FP 75.4* and HCMV NEC inh -23.8.
Screening CC(C)Cc1ccc(S(=O)(=O)Nc2cc(C(=O)O)cnc2N(C)C)cc1 returned GIV Gai3 FP 101.1 and HCMV NEC inh -19.8.
`COc1ccc(/C=c2/sc3nc(=O)cnn3c2=O)cc1` gave GIV Gai3 FP 109.8.
Cc1ccc(/C=c2/sc3nc(=O)cnn3c2=O)cc1 was read as GIV Gai3 FP 91.6 and HCMV NEC inh 71.6*.
`CCN1/C(=C/C=C2\SC(=S)N(C)C2=O)Oc2ccccc21` gave GIV Gai3 FP 161.8 and HCMV NEC inh -50.4.
`CCCN1C(=O)/C(=C/C=C2/Oc3ccccc3N2CCC(=O)O)N(CCO)C1=S` gave GIV Gai3 FP -18.2*.
For CNc1nc2ccccn2c(=O)c1/C=C1\SC(=S)N(C)C1=O the results were GIV Gai3 FP 138.3.
Cc1ccc2nc(Sc3ccccc3)c(/C=C3\SC(=S)N(C)C3=O)c(=O)n2c1 was read as GIV Gai3 FP -36.2*.
For Cc1cccc(N2C(=O)C3ON(c4ccccc4)C(c4ccco4)C3C2=O)c1 (stereo not drawn) the results were GIV Gai3 FP 99.6 and HCMV NEC inh 9.3.
`CCOC(=O)C1=C(C)OC(N)=C(C#N)C1c1ccc(O)cc1` (stereo not drawn) gave GIV Gai3 FP 101.0 and HCMV NEC inh -46.6.
`CC(=O)OCc1c(C)ccc(C2C(C#N)=C(N)OC(N)=C2C#N)c1C` gave GIV Gai3 FP -1.1*.
Screening CC(C)(C)c1ccc2c(c1)N(CC(=O)Nc1ccc(CCc3nc4ccccc4[nH]3)cc1)C(=O)CO2 returned GIV Gai3 FP 100.9 and HCMV NEC inh -39.4.
For CC(Sc1nc2c([nH]1)c(=O)n(C)c(=O)n2C)C(=O)O (stereo not drawn) the results were GIV Gai3 FP 85.0* and HCMV NEC inh -10.7.
For Cn1c(=O)c2[nH]c(SCC(=O)C(C)(C)C)nc2n(C)c1=O the results were HCMV NEC inh -10.6.
For Oc1c(C(Nc2cccc(Cl)c2)c2cccnc2)ccc2cccnc12 (stereo not drawn) the results were GIV Gai3 FP 100.3.
Screening CCOC(=O)c1c(NC(=O)C(F)(F)F)n[nH]c1N returned HCMV NEC inh 9.2.
O=c1[nH]c2cc3c(cc2cc1C(c1nnnn1C1CCCC1)N1CC=C(c2ccc(F)cc2)CC1)OCO3 (stereo not drawn) was read as GIV Gai3 FP 108.0 and HCMV NEC inh -30.8.
Screening Cc1ccc(C)c(N2CCN(C(=O)c3cccn4c(=O)c5ccccc5nc34)CC2)c1 returned GIV Gai3 FP 103.9.
CCOC(=O)N1CCN(C(=O)c2cccn3c(=O)c4cc5ccccc5cc4nc23)CC1 was read as GIV Gai3 FP 24.1*.
For CCOC(=O)C(C#N)c1nc2ccccc2nc1N1CCN(C(=O)c2ccco2)CC1 (stereo not drawn) the results were HCMV NEC inh -67.1.
`Cc1csc(-n2[nH]c(C)c(CC(=O)Nc3ccc(F)cc3)c2=O)n1` gave GIV Gai3 FP 101.4 and HCMV NEC inh -14.3.
N#CC(C#N)C(C#N)(C#N)C1CCCC1=O (stereo not drawn) was read as GIV Gai3 FP 68.3* and HCMV NEC inh -4.2.
For O=C(Oc1cccc(Br)c1)C1CCCCC1 the results were HCMV NEC inh -18.1.
Screening O=C(Cc1ccccc1)NCc1nc(-c2ccccc2)no1 returned GIV Gai3 FP 105.7.
`CCc1ccc(C2C(C#N)=C(N)SC(N)=C2C#N)cc1` gave HCMV NEC inh -13.1.
CCOc1ccccc1C1C(C#N)=C(N)SC(N)=C1C#N was read as GIV Gai3 FP -78.3* and HCMV NEC inh -10.8.
COc1cc(C(=O)CSc2ccc(C)cc2)cc(OC)c1OC was read as HCMV NEC inh -9.2.
Screening O=C(c1cc2ccccc2[nH]1)N1CCN(c2nc3cc(Br)ccc3n3cccc23)CC1 returned GIV Gai3 FP 107.3 and HCMV NEC inh -6.5.
For CCOc1cc(C=C2C(=O)N(C)C(=O)N(C)C2=O)ccc1OCCOc1ccc(C)cc1 the results were GIV Gai3 FP 106.2 and HCMV NEC inh 61.4*.
CCOc1cc(C=C2C(=O)N(C)C(=O)N(C)C2=O)ccc1OCCOc1ccccc1 was read as GIV Gai3 FP 108.0 and HCMV NEC inh 16.9.
Screening Cc1cccc(NC(=O)c2sc3nc(-c4cc5ccc(O)cc5oc4=O)[nH]c(=O)c3c2C)c1 returned GIV Gai3 FP -66.0* and HCMV NEC inh -18.3.
For Cc1cc(C)cc(NC(=O)c2sc3nc(-c4cc5ccccc5oc4=O)[nH]c(=O)c3c2C)c1 the results were GIV Gai3 FP 98.4 and HCMV NEC inh -6.7.
`Cc1cccc(NC2=NCC(=O)N2Cc2ccccc2)c1` gave GIV Gai3 FP 102.5 and HCMV NEC inh 59.4*.
For O=C1CN=C(Nc2ccccc2Cl)N1Cc1ccccc1 the results were GIV Gai3 FP 101.9 and HCMV NEC inh 15.1.
Screening COc1cc(OC)c(OC)cc1/C=C1\N=C(c2cccc(Br)c2)OC1=O returned GIV Gai3 FP 171.7.

3 structures from above, ordered by length of the SMILES, ascending:
`CC(=O)OCc1c(C)ccc(C2C(C#N)=C(N)OC(N)=C2C#N)c1C` gave GIV Gai3 FP -1.1*.
Cc1ccc2nc(Sc3ccccc3)c(/C=C3\SC(=S)N(C)C3=O)c(=O)n2c1 was read as GIV Gai3 FP -36.2*.
For CCOc1cc(C=C2C(=O)N(C)C(=O)N(C)C2=O)ccc1OCCOc1ccc(C)cc1 the results were GIV Gai3 FP 106.2 and HCMV NEC inh 61.4*.

Screening results from PubChem.
